Sequences of proteins named here, by UniProt entry; tags and fusion partners are left off. Residues count along the entry.
UniProt Q9NZQ7, 19-290: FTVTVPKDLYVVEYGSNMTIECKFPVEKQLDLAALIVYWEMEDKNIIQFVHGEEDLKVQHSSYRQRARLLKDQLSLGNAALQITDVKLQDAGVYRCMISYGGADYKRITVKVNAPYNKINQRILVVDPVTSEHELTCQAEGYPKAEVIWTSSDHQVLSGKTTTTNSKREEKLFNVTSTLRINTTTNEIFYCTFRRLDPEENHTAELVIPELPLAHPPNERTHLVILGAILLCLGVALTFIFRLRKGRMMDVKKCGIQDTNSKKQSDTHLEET

In patent publication US20210101932A1 (Bicycle, published 2021):

Tests used:
[1] = molecular target: human PD-L1 overexpressed on CHO-K1 cells (human) (UniProt Q9NZQ7); test: cell-based or functional assay
[2] = molecular target: Recombinant mouse PD-L1 (R&D systems), biotinylated (mouse) (UniProt Q9EP73); test: SPR (Biacore), biotinylated mouse PD-L1 on streptavidin chip
[3] = molecular target: human PD-L1 overexpressed on CHO-K1 cells (human, UniProt Q9NZQ7 19-290); test: cell-based or functional assay
[4] = molecular target: T1, Recombinant human PD-L1 (Sino Biologicals or R&D systems), biotinylated (human, UniProt Q9NZQ7 19-238, limits assumed, biotinylated with EZ-Link Sulfo-NHS-LC-LC-Biotin); test: SPR (Biacore), biotinylated PD-L1 on streptavidin chip
T1 construct: captured on a streptavidin CM5 chip for SPR; also called human PD-L1 protein; Biotinylated PD-L1
Description: Biacore experiments were performed to determine kₐ) (M⁻¹s⁻¹), kd (s⁻¹), KD (nM) values of monomeric peptides binding to human PD-L1 protein. […] The protein was desalted to remove uncoupled biotin using spin columns into PBS. For analysis of binding, a Biacore 3000 instrument was used utilizing a CM5 sensor chip (GE Healthcare). Streptavidin was immobilized on the chip using standard amine-coupling chemistry at 25° C. with HBS-N (10 mM HEPES, 0.15 M NaCl, pH 7.4) as the running buffer. The carboxymethyl dextran surface was activated with a 12 min injection of a 1:1 ratio of 0.4 M 1-ethyl-3-(3-dimethylaminopropyl) carbodiimide hydrochloride (EDC)/0.1 M N-hydroxy succinimide (NHS) at a flow rate of 10 μl/min. For capture of streptavidin, protein was diluted to 0.1 mg/ml in 10 mM sodium acetate (pH 4.5) and captured by injecting 70 μl onto the activated chip surface. Residual activated groups were blocked with a 7 min injection of 1 M ethanolamine (pH 8.5). Biotinylated PD-L1 stock was diluted 1:100 in HBS-N and captured on one flow cell at 5 μl/min to a level of 1000-1300 RU. Buffer was changed to PBS/0.05% Tween 20 and a dilution series of the peptides was prepared in this buffer with a final DMSO concentration of 0.5%. The top concentrations were 200 nM or 500 nM with 6 2-fold dilutions. The SPR analysis was run at 25° C. at a flow rate of Flow rate 50 μl/min with 60 seconds association and 400 seconds disassociation. Data were corrected for DMSO excluded volume effects. All data were double-referenced for blank injections and reference surface using standard processing procedures and data processing and kinetic fitting were performed using Scrubber software, version 2.0c (Biologic Software). Data were fitted using mass transport model allowing for mass transport effects where appropriate.

human PD-L1 [5] = molecular target: T2, human PD-L1 (human, UniProt Q9NZQ7 19-238, limits assumed); test: FP, Table 1 'Human Direct Binding Assay'
T2 construct: also called hPD-L1; Programmed cell death 1 ligand 1
Description: Measurements were conducted on a BMG PHERAstar FS equipped with an “FP 485 520 520” optic module which excites at 485 nm and detects parallel and perpendicular emission at 520 nm. The PHERAstar FS was set at 25° C. with 200 flashes per well and a positioning delay of 0.1 second, with each well measured at 5 to 10 minute intervals for 60 minutes. The gain used for analysis was determined for each tracer at the end of the 60 minutes where there was no protein in the well. […] “Lig” was a defined value of the concentration of tracer used.

human PD-L1 [6] = molecular target: T2, human PD-L1; test: FP competition vs FI-G-Sar5-…
Description: Peptides were diluted to an appropriate concentration in assay buffer as described in the direct binding assay with a maximum of 5% DMSO, then serially diluted 1 in 2. […] Measurements were conducted as for the direct binding assay, however the gain was determined prior to the first measurement. Data analysis was in Systat Sigmaplot version 12.0 where the mP values were fit to a user defined cubic equation to generate a Ki value: […]

Molecule | Kd [4] [nM] | also measured
PD-L1 monoclonal antibody (clone MIH1, Invitrogen catalog #16598382) | – | EC50 (nM), PD-1/PD-L1 Blockade Bioassay (NFAT-luciferase fold induction in PD-1 Jurkat cells) [1]: 2.46 nM
BCY8938 (peptide) | – | Kd [2]: 117 nM
SDKCSAGWLTMCKQLNLCPSH (N-terminal [Ac]; Ci, Cii, Ciii cyclised on TATA) [BCY10467] | 3.1 | EC50 (nM), PD-1/PD-L1 Blockade Bioassay (NFAT-luciferase fold induction in PD-1 Jurkat cells) [3]: 196 nM
SDKCSAGWLTMCKQLNLCPSH (N-terminal [Ac]; C-terminal -COOH; Ci, Cii, Ciii cyclised on TATA) [BCY10939] | 3.39 | EC50 (nM), PD-1/PD-L1 Blockade Bioassay (NFAT-luciferase fold induction in PD-1 Jurkat cells) [3]: 211 nM
SDKCSAGWLTMCQKLHLCA (N-terminal [Ac]; Ci, Cii, Ciii cyclised on TATA) [BCY10075] | 28.6 | –
SDKCSAGWLTMCQKLHLC (N-terminal Ac; Ci, Cii, Ciii cyclised on TATA) [BCY11832] | 68.4 | –
SDRCSAGWLTMCQKLHLC (N-terminal [Ac]; Ci, Cii, Ciii cyclised on TATA) [BCY10076] | 14.5 | –
SDKCSAGWLTMCQRLHLC (N-terminal [Ac]; Ci, Cii, Ciii cyclised on TATA) [BCY10078] | 12.2 | –
SDKCSAEWLTMCQKLHLC (N-terminal [Ac]; Ci, Cii, Ciii cyclised on TATA) [BCY10947] | 31.1 | –
SDKCSAGWLTMCEKLHLC (N-terminal [Ac]; Ci, Cii, Ciii cyclised on TATA) [BCY10949] | 18.7 | –
SEKCSAGWLTMCQKLHLC (N-terminal [Ac]; Ci, Cii, Ciii cyclised on TATA) [BCY10951] | 7.28 | –
SDKCSAGWLTMCKQLNLCPS (N-terminal [Ac]; Ci, Cii, Ciii cyclised on TATA) [BCY10934] | 10.9 | –
SDKCSAGWLTMCKQLNLCP (N-terminal [Ac]; Ci, Cii, Ciii cyclised on TATA) [BCY10935] | 14.9 | –
SDKCSAGWLTMCKQLNLCPS (N-terminal [Ac]; C-terminal -COOH; Ci, Cii, Ciii cyclised on TATA) [BCY10936] | 13 | –
ACSESWSAMCASLGLCA (Ci, Cii, Ciii cyclised on TATA, also called 73-14-04-N001) [BCY531] | – | Kd (human PD-L1 [5]): 311 nM; Ki (human PD-L1 [6]): 118 nM
SDKCSAGWLTMCKQLNLCP (N-terminal [Ac]; C-terminal -COOH; Ci, Cii, Ciii cyclised on TATA) [BCY10937] | 5.03 | –

Molecule | Kd [4] [nM] | also measured
SDKCSAGWLTMCKQLNLC (N-terminal [Ac]; C-terminal -COOH; Ci, Cii, Ciii cyclised on TATA) [BCY10938] | 12.2 | –
DKCSAGWLTMCKQLNLCPSH (N-terminal [Ac]; Ci, Cii, Ciii cyclised on TATA) [BCY10940] | 2.32 | –
KCSAGWLTMCKQLNLCPSH (N-terminal [Ac]; Ci, Cii, Ciii cyclised on TATA) [BCY10941] | 3.67 | –
CSAGWLTMCKQLNLCPSH (N-terminal [Ac] on Ci; Ci, Cii, Ciii cyclised on TATA) [BCY10942] | 24.1 | –
SDKCSAGWLTMCQKLHLCPSH (N-terminal [Ac]; Ci, Cii, Ciii cyclised on TATA) [BCY10943] | 7.76 | –
SDKCSAGWLTMCLKLHLCPSH (N-terminal Ac; Ci, Cii, Ciii cyclised on TATA) [BCY11830] | 24.1 | –
ACSESWSNMCVSLGLCA (Ci, Cii, Ciii cyclised on TATA, also called 73-14-00-N002) [BCY527] | 933 | Kd (human PD-L1 [5]): 494 nM; Ki (human PD-L1 [6]): 440 nM
ACSESWSNMCKSLGLCA (Ci, Cii, Ciii cyclised on TATA, also called 73-14-05-N001) [BCY532] | – | Kd (human PD-L1 [5]): 176 nM; Ki (human PD-L1 [6]): 243 nM
ACSWSWLTMCQKLHLCA (Ci, Cii, Ciii cyclised on TATA, also called 73-07-00-N002) [BCY519] | 60.9 | –
ACSAEWRNMCVQLDLCA (Ci, Cii, Ciii cyclised on TATA, also called 73-14-01-N001) [BCY528] | 291 | Kd (human PD-L1 [5]): 162 nM; Ki (human PD-L1 [6]): 112 nM
ACSASWSNMCVELGLCA (Ci, Cii, Ciii cyclised on TATA, also called 73-14-02-N001) [BCY529] | 442 | Kd (human PD-L1 [5]): 356 nM; Ki (human PD-L1 [6]): 201 nM
SDKCSAGWLTMCQKLHLCA (Ci, Cii, Ciii cyclised on TATA) [BCY3835] | 30.1 | –
SDKCSAGWLTMCLKLHLCA (Ci, Cii, Ciii cyclised on TATA) [BCY10067] | 5.51 | –
SDKCSAGWLTMCQKLHLCA (N-terminal [Ac]; [dS] = D-Ser at chain position 1; Ci, Cii, Ciii cyclised on TATA) [BCY10051] | 20.7 | –
SDKCSAGWLTMCVQLGLCA (Ci, Cii, Ciii cyclised on TATA) [BCY10065] | 34.1 | –
